Assay results from patent EP2663342B1, “STABLE HYDROGEL COMPOSITIONS INCLUDING PHENYLEPHRINE” (ALLERGAN, INC., priority 2011, dated 2012).

Experiment: Aspect (color/clarity/homogeneity) of HA-based gel after autoclaving
Assay type: physicochemical
Details: 1% (w/w), 3.5% (w/w), or 7% (w/w) TPGS in HA-based gel matrix; same before autoclaving

aspect of gel after autoclaving: clear and uncolored
Substance: Tocopherol polyethylene glycol 1000 succinate
